Laboratory results published in US7148353B2 (priority 2003, dated 2006).
Read-outs that look alike come from different tables or passages of the source.

Protein sequences, listed by entry. Tags and fused reporters are not part of them.
UniProt P16257, whole entry: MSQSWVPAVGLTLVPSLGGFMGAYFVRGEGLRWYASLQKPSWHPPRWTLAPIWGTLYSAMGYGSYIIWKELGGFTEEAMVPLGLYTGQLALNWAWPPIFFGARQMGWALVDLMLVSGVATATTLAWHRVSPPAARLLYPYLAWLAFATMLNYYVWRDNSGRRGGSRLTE

Tests used:
[1] = molecular target: central benzodiazepine receptors; test: binding to central benzodiazepine receptors, displacement of 3H-flunitrazepam (test of Speth et al.); details: read-out: IC50 (nM) central, Table 1b
[2] = molecular target: peripheral benzodiazepine receptors (Rattus norvegicus, UniProt P16257); details: read-out: IC50 (nM) peripheral, Table 1b
[3] = tested as the radiolabelled form

Cc1cc(Cl)cn2c(CC(=O)c3cccs3)c(-c3ccccc3)nc12
IC50 [1, 3]: > 10000 nM | IC50 [2, 3]: 3700 nM

O=C(Cc1c(-c2ccccc2)nc2ccc(Cl)cn12)c1cccs1
IC50 [1, 3]: 630 nM | IC50 [2, 3]: 1200 nM

Cc1ccc(-c2nc3ccc(C(F)(F)F)cn3c2CC(=O)c2cccs2)cc1
IC50 [1]: > 10000 nM | IC50 [2]: 650 nM
